This is a selection; strong and weak results do not stand in their true shares. Some salts or complexes appear as unconnected parts, following the source record. Calls of active or inactive are those of the source.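 Rule for the calls: active = compounds whose plate-normalised and pattern-corrected inhibition of the luciferase reporter signal at the single screening dose is 50% or more; inactive = the rest.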

This experiment is described as follows: inhibitors of TROY-driven NF-kB signaling, primary screen, Q293 LMP1-TROYcd cells, NF-kB luciferase, uHTS (AID 1347056). Particulars: Q293 LMP1-TROYcd NF-kB luciferase reporter, 4 h; at 10 µM; stronger effect = higher value. Background: In a reporter assay the amount or activity of a reporter protein is the signal.
Turning to `COc1ccccc1OP(C)(=O)Nc1cc(Cl)ccc1C` (stereo not drawn), the inhibition (as a rule, the drop in the measured response relative to a control, in per cent) is inactive: 10.1%.

In the case of `COc1ccc(OP(C)(=O)Nc2cccc(F)c2)cc1` (stereo not drawn), the inhibition is inactive: -8.89%.

As for `Cc1cc(C)cc(OP(C)(N)=O)c1` (stereo not drawn), the inhibition was inactive: -11.5%.

In the case of `CCOC(=O)c1ccc(NP(C)(=O)Oc2ccccc2)cc1` (stereo not drawn), the inhibition was inactive: -8.72%.

`COc1ccccc1OP(C)(=O)Nc1ccc(C)cc1` (stereo not drawn): the inhibition is inactive: -16.8%.

Regarding `Cc1ccc(NP(C)(=O)Oc2ccccc2)c(C)c1` (stereo not drawn), the inhibition is inactive: -12.7%.

In the case of `CC(C)(C)c1ccc(OP(C)(=O)Nc2ccc(SC(F)(F)F)cc2)cc1` (stereo not drawn), the inhibition is inactive: 14.8%.

On to `Cc1cccc(C)c1OP(C)(N)=O` (stereo not drawn), for which the inhibition is inactive: 16%.

`O=[N+]([O-])c1ccc2c(c1)C=Nc1ccccc1O2`: the inhibition was inactive: -1.54%.

For `O=[N+]([O-])c1cc([N+](=O)[O-])c(Nc2cccnc2)c([N+](=O)[O-])c1`, the inhibition was inactive: 15.3%.

For the molecule `COc1ccccc1-c1ccccn1.O=[N+]([O-])c1cc([N+](=O)[O-])c(O)c([N+](=O)[O-])c1`, the inhibition was inactive: 0.97%.

Consider `CCN(CC)CCCOC(=O)C(O)(c1ccccc1)c1ccccc1`, for which the inhibition is inactive: 11.6%.

Consider `CP(=O)(Nc1ccccn1)Oc1ccc(Cl)cc1` (stereo not drawn), for which the inhibition was inactive: -6.04%.

Turning to `CCOP(C)(=S)SCC(=O)NC(C)C(=O)O` (stereo not drawn), the inhibition is inactive: -24.9%.

As for `O=[N+]([O-])c1cc([N+](=O)[O-])c(O)c([N+](=O)[O-])c1.c1ccc(Oc2ccncc2)cc1`, the inhibition is inactive: 13%.

As for `CCOC(=O)c1ccc(NP(C)(=O)Oc2ccc(OC)cc2)cc1` (stereo not drawn), the inhibition was inactive: 8.64%.

As for `CCc1ccc(OP(C)(=O)N2CCN(c3ccc([N+](=O)[O-])cc3)CC2)cc1` (stereo not drawn), the inhibition is inactive: 14%.

Regarding `CP(=O)(NC(=O)Nc1ccccc1)Oc1ccccc1` (stereo not drawn), the inhibition was inactive: -2.19%.

For the molecule `Cc1cc(C)cc(OP(C)(=O)Nc2ccc(SC(F)(F)F)cc2)c1` (stereo not drawn), the inhibition is inactive: 4.06%.

Consider `CP(=O)(Nc1ccc(SC(F)(F)F)cc1)Oc1ccc(Cl)cc1` (stereo not drawn), for which the inhibition was inactive: 13.4%.

As to `Cc1ccc(Nc2c([N+](=O)[O-])cc([N+](=O)[O-])cc2[N+](=O)[O-])cc1`, the inhibition is inactive: 36.2%.

Regarding `Cc1cccc(C)c1OP(C)(=O)Nc1ccc(SC(F)(F)F)cc1` (stereo not drawn), the inhibition was inactive: 21.9%.

`CP(=O)(Oc1ccccc1)OC(c1ccccc1)C(F)(F)F` (stereo not drawn): the inhibition was inactive: 8.11%.

For `COc1ccccc1OP(C)(=O)Nc1ccccc1` (stereo not drawn), the inhibition is inactive: 5.06%.

For the molecule `CP(=O)(Nc1ccccc1Br)Oc1ccccc1` (stereo not drawn), the inhibition is inactive: 19%.

As to `CP(=S)(Nn1cnnc1)Oc1ccccc1` (stereo not drawn), the inhibition was inactive: 2.02%.

`CP(=O)(Nc1ccc(SC(F)(F)F)cc1)Oc1ccccc1` (stereo not drawn): the inhibition was inactive: 22.8%.

As to `CCCOc1ccc(NP(C)(=O)Oc2ccc(Cl)cc2)cc1` (stereo not drawn), the inhibition is inactive: -7.71%.

In the case of `COc1ccc(-c2ccccn2)cc1.O=[N+]([O-])c1cc([N+](=O)[O-])c(O)c([N+](=O)[O-])c1`, the inhibition is inactive: -37.8%.

On to `CN1CCCCC1COC(=O)C1(O)c2ccccc2CCc2ccccc21` (stereo not drawn), for which the inhibition was inactive: -33.6%.

Consider `COc1ccccc1OP(C)(=O)Nc1c(C)cccc1C` (stereo not drawn), for which the inhibition was inactive: 10.3%.

As to `O=[N+]([O-])c1cc([N+](=O)[O-])c(Nc2nnnn2CCO)c([N+](=O)[O-])c1`, the inhibition is inactive: -13.5%.

Consider `CCOC(=O)C(CC)C1=NC(C)(C)Cc2ccccc21.O=[N+]([O-])c1cc([N+](=O)[O-])c(O)c([N+](=O)[O-])c1` (stereo not drawn), for which the inhibition is inactive: -2.67%.

Take `Cc1nc2ccc3ccccc3c2s1.O=[N+]([O-])c1cc([N+](=O)[O-])c(O)c([N+](=O)[O-])c1`: the inhibition is inactive: -6.28%.

Consider `O=[N+]([O-])c1cc([N+](=O)[O-])c(-c2cnn(-c3ccccc3)c2)c([N+](=O)[O-])c1`, for which the inhibition is inactive: -5.33%.

On to `CN(Cc1cccnc1)C(=O)COc1ccc(Cl)c(Cl)c1.O=[N+]([O-])c1cc([N+](=O)[O-])c(O)c([N+](=O)[O-])c1`, for which the inhibition was inactive: 2.59%.

For the molecule `O=[N+]([O-])c1cc([N+](=O)[O-])c(-n2nnc3ccccc32)c([N+](=O)[O-])c1`, the inhibition is inactive: 5.04%.

In the case of `CP(=O)(Nc1cccc(Br)c1)Oc1ccccc1` (stereo not drawn), the inhibition was inactive: 3.43%.

On to `Cc1cc(C)cc(OP(C)(=O)Nc2ccccn2)c1` (stereo not drawn), for which the inhibition was inactive: -0.1%.

Take `Cc1ccc(C)c(NP(C)(=O)Oc2ccccc2)c1` (stereo not drawn): the inhibition is inactive: -0.39%.

As to `Cc1cc(C)cc(OP(C)(=O)Nc2ccc(C)cc2C)c1` (stereo not drawn), the inhibition is inactive: -3.12%.

On to `CCOC(=O)c1ccc(NP(C)(=O)Oc2cc(C)cc(C)c2)cc1` (stereo not drawn), for which the inhibition is inactive: -0.42%.

With `COc1ccccc1OP(C)(=O)Nc1cccc(Br)c1` (stereo not drawn), the inhibition was inactive: -20.8%.

Regarding `CC1=NCCc2c1[nH]c1ccccc21.O=[N+]([O-])c1cc([N+](=O)[O-])c(O)c([N+](=O)[O-])c1`, the inhibition was inactive: 21.9%.

As for `O=C(O)c1cccc(Nc2c([N+](=O)[O-])cc([N+](=O)[O-])cc2[N+](=O)[O-])c1`, the inhibition was inactive: -2.03%.

For `O=[N+]([O-])c1cc([N+](=O)[O-])c(OC2CCCCC2O)c([N+](=O)[O-])c1` (stereo not drawn), the inhibition is inactive: -13.2%.

`CCCCCOc1ccc(NP(C)(=O)Oc2ccc(Cl)cc2Cl)cc1` (stereo not drawn): the inhibition was inactive: 1.37%.

Take `CP(=O)(Nc1ccccc1)Oc1ccc(F)cc1` (stereo not drawn): the inhibition was inactive: 18.6%.

In the case of `CCN(CC)CCCOC(=O)C(O)(c1ccccc1)C1CCCCC1` (stereo not drawn), the inhibition was inactive: 3.98%.

Take `Cc1c([N+](=O)[O-])cc([N+](=O)[O-])c(Br)c1[N+](=O)[O-]`: the inhibition is inactive: 9.96%.

Take `COc1ccc(OP(C)(=O)Nc2ccc(SC(F)(F)F)cc2)cc1` (stereo not drawn): the inhibition is inactive: 14.8%.

For `CCOC(=O)c1ccc(NP(C)(=O)Oc2ccc(F)cc2)cc1` (stereo not drawn), the inhibition was inactive: 5.21%.

Consider `CCN(CC)CCCNc1ccccc1[N+](=O)[O-].O=[N+]([O-])c1cc([N+](=O)[O-])c(O)c([N+](=O)[O-])c1`, for which the inhibition was inactive: -16.1%.

On to `COc1ccc2c(c1O)-c1c(O)c(OC)cc3c1[C@H](C2)[N+](C)(C)CC3.O=[N+]([O-])c1cc([N+](=O)[O-])c([O-])c([N+](=O)[O-])c1[O-]`, for which the inhibition was inactive: -19.9%.

Regarding `O=C(OCCN1CCN(CCOCc2ccccc2)CC1)C(O)(c1ccccc1)c1ccccc1`, the inhibition is inactive: 0.55%.

With `O=C(OC1CN2CCC1CC2)c1ccc([N+](=O)[O-])cc1` (stereo not drawn), the inhibition was inactive: -16.6%.

Consider `CC(C)c1ccc(OP(C)(=O)Nc2ccc(SC(F)(F)F)cc2)cc1` (stereo not drawn), for which the inhibition was inactive: 1.3%.

For `CP(=O)(Nc1ccccc1F)Oc1ccccc1` (stereo not drawn), the inhibition was inactive: 3.86%.

As for `O=[N+]([O-])c1cc([N+](=O)[O-])c(Nc2ccc(Cl)cc2)c([N+](=O)[O-])c1`, the inhibition was active: 59.4%.

For the molecule `O=[N+]([O-])c1cc([N+](=O)[O-])c(C(F)(F)F)c([N+](=O)[O-])c1O`, the inhibition is inactive: -2.65%.

Turning to `Cc1ccccc1NP(C)(=O)Nc1ccccc1C`, the inhibition was inactive: -3.16%.

Turning to `CP(=O)(Nc1ccc2c(c1)OCCO2)Oc1ccccc1` (stereo not drawn), the inhibition was active: 65.8%.

With `CCOP(C)(=S)SCC(=O)NC(C)(CC)C(=O)O` (stereo not drawn), the inhibition was inactive: -0.82%.

For `CP(=O)(Nc1ccc(SC(F)(F)F)cc1)Oc1ccc(F)cc1` (stereo not drawn), the inhibition is inactive: 2.1%.

Regarding `Cc1c(C(c2ccc3c(c2)OCO3)c2c(C)n(C)n(-c3ccccc3)c2=O)c(=O)n(-c2ccccc2)n1C.O=[N+]([O-])c1cc([N+](=O)[O-])c(O)c([N+](=O)[O-])c1`, the inhibition is inactive: 10.4%.

With `Cc1cc(-c2cccc3ccccc23)c(C)cn1.O=[N+]([O-])c1cc([N+](=O)[O-])c(O)c([N+](=O)[O-])c1`, the inhibition is inactive: 9.38%.

Consider `O=[N+]([O-])c1cc([N+](=O)[O-])c(NCC2CCS(=O)(=O)C2)c([N+](=O)[O-])c1` (stereo not drawn), for which the inhibition is inactive: -7.52%.

On to `O=[N+]([O-])c1ccc(OP2(=O)COCCO2)cc1` (stereo not drawn), for which the inhibition was inactive: -2.64%.

Turning to `COc1ccc(NP(C)(=O)Oc2ccccc2OC)cc1` (stereo not drawn), the inhibition was inactive: 21.7%.

Turning to `CN(C)CCOC(=O)C(O)(c1ccccc1)C1CCCCC1` (stereo not drawn), the inhibition was inactive: -1.7%.

As to `COc1ccc(OP(C)(=O)Nc2cccc(Br)c2)cc1` (stereo not drawn), the inhibition is inactive: 4.46%.

Regarding `CP(=O)(OC12CC3CC(CC(C3)C1)C2)OC12CC3CC(CC(C3)C1)C2`, the inhibition was inactive: 9.1%.

On to `CCOC(=O)c1ccc(NP(C)(=O)Oc2ccc(Cl)cc2)cc1` (stereo not drawn), for which the inhibition is inactive: 10.7%.

With `CN(C)C(=O)c1c([N+](=O)[O-])cc([N+](=O)[O-])cc1[N+](=O)[O-]`, the inhibition is inactive: -10.2%.

As to `CP(=O)(Nc1ccc(Cl)cc1)Oc1ccc(F)cc1` (stereo not drawn), the inhibition was inactive: 6.81%.

On to `CC(C)(C)c1ccc(OP(C)(=O)O)cc1`, for which the inhibition is inactive: -2.18%.

For the molecule `COc1ccccc1OP(C)(=O)Nc1ccccc1Br` (stereo not drawn), the inhibition was inactive: 14.5%.

With `CP(=O)(Oc1ccccc1)N1CCOC1=O` (stereo not drawn), the inhibition is inactive: 4.33%.

Take `CCc1ccc(OP(C)(=O)Nc2cccnc2)cc1` (stereo not drawn): the inhibition was inactive: 0.25%.

With `COc1ccccc1OP(C)(=O)Nc1c(C)n(C)n(-c2ccccc2)c1=O` (stereo not drawn), the inhibition is inactive: -15.1%.

As to `O=C(OCCCN1CCCC1)C(O)(c1ccccc1)C1CCCCC1` (stereo not drawn), the inhibition was inactive: -0.69%.

Take `CCN(CC)CC(O)COC(=O)C(O)(c1ccccc1)C1CCCCC1` (stereo not drawn): the inhibition was inactive: -2.76%.

In the case of `COc1ccc(OP(C)(=O)Nc2ccc(Br)cc2)cc1` (stereo not drawn), the inhibition is inactive: -9.14%.

As to `CCc1ccc(OP(C)(=O)O)cc1`, the inhibition was inactive: -9%.

As to `CP(=O)(Nc1ccccn1)Oc1ccccc1` (stereo not drawn), the inhibition is inactive: 0.88%.

In the case of `COc1ccccc1OP(C)(=O)Nc1ccc(C)cc1C` (stereo not drawn), the inhibition is inactive: -2.96%.

Turning to `O=[N+]([O-])c1cc([N+](=O)[O-])c(Nc2ccccn2)c([N+](=O)[O-])c1`, the inhibition is inactive: 16.7%.

In the case of `Cc1c(NP(C)(=O)Oc2ccc(C(C)C)cc2)c(=O)n(-c2ccccc2)n1C` (stereo not drawn), the inhibition is inactive: 2.72%.

Turning to `CN(C)CCOC(=O)C(O)(c1ccccc1)C1CCCC1` (stereo not drawn), the inhibition is inactive: 2.81%.

As to `COc1ccc(OP(C)(=O)Nc2ccccn2)cc1` (stereo not drawn), the inhibition was inactive: 14.5%.

Take `COc1ccccc1OP(C)(=O)Nc1ccc(Br)cc1` (stereo not drawn): the inhibition was inactive: 5.11%.

Consider `CP(=O)(OCCOc1ccccc1)OCCOc1ccccc1`, for which the inhibition is inactive: 2.68%.

As to `CP(=O)(Nc1ccc(Cl)cc1Cl)Oc1ccccc1` (stereo not drawn), the inhibition is inactive: -10%.

For the molecule `CCCCCCCCCCCCCCCC1C[N+](C)(C)CCOP(C)(=O)O1` (stereo not drawn), the inhibition is inactive: -29.6%.

As for `COc1ccc(OP(C)(=O)Nc2ccccc2Br)cc1` (stereo not drawn), the inhibition is inactive: -8.38%.

In the case of `COc1ccccc1OP(C)(=O)Nc1ccc(C)c(C)c1` (stereo not drawn), the inhibition is inactive: -33.1%.

Regarding `O=C1C(O)=C([N+](=O)[O-])C(=O)C(O)=C1[N+](=O)[O-]`, the inhibition is inactive: 2.91%.

Turning to `Cc1cc(C)cc(OP(C)(=O)Nc2cccc(C(F)(F)F)c2)c1` (stereo not drawn), the inhibition was inactive: -3.41%.

The values above are taken from PubChem BioAssay AID1347056 (Sanford-Burnham Center for Chemical Genomics, 2019).
